Assay results as given in patent US20230218773A1 (priority 2020, published 2023).

What was measured:
Cathepsin B = target: T1, Cathepsin B (Homo sapiens, UniProt P07858); assay: Drug release of MMAE from albumin-drug conjugates with/without Cathepsin B; format: in vitro ADME; conditions: buffer pH 5.5, 37° C.; for conjugated MMAE released upon incubation with Cathepsin B: within 40 min
T1 construct: Cathepsin B extracted from human liver (Sigma-Aldrich); purchased Sigma-Aldrich; host or cells: human liver (tissue extract)
Method: (§1) Quantification of MMAE by LC-MS: An Agilent 1260 Infinity liquid chromatography system (G1312B) with an Agilent 6530 Q-TOF mass spectrometer was used to detect the drug MMAE. 5 μL of sample was injected into an Eclipse Plus C18 column (50×2.1 mm, 5 μm) followed by a gradient elution at 0.7 mL/min. […] Electrospray ionization source was used in positive mode. To derive standard curves for MMAE, drug standards were spiked into blank matrix along with internal standard. Samples were then prepared for LC-MS analysis. MMAE was monitored at m/z 740 [M+Na]+, 719 [M+H]+, 371 [M+Na+1-1]^2+ and 360 [M+2H]^2±. Deuterated (D8) MMAE as internal standard was monitored at m/z 748 [M+Na]+, 727 [M+H]+, 375 [M+Na+1-1]^2+ and 364 [M+2H]^2±. The peak area of each drug standard was derived by the peak area of internal standard. The peak area ratios were then plotted as a function of standard concentrations and data points were fitted using linear regression (GraphPad). MMAE concentrations in test samples were quantified using the peak area ratio between MMAE and D8-MMAE and calculated using the standard curves.
Cathepsin B extracted from human liver (Sigma-Aldrich) was activated in a buffer containing 30 mM DTT, 15 mM EDTA at pH 5.5 for 15 min at room temperature. The concentration of Cathepsin B in activation buffer is 0.125 μM. Albumin-drug conjugates in 25 mM sodium acetate buffer (pH 5.5) was mixed with Cathepsin B at the volume ratio of 14:1 (v/v). The target molar ratio of Cathepsin B to linker in albumin-drug conjugates was 1:1000 (mol/mol). The reaction mixture was incubated at 37° C. water bath. 10 μL sample aliquots were taken at predetermined time points and immediately quenched by adding E-64 (trans-Epoxysuccinyl-L-leucylamido(4-guanidino)butane protease inhibitor, Sigma-Aldrich) to a final concentration of 0.25 μM. Acetonitrile was added to a final concentration of 95% (v/v). The supernatant was subsequently analyzed by LC-MS to quantify released free MMAE.

PANC1 cells = assay: MTT assay, PANC1 cells; format: cell-based, human
Source text: Cell lines and culture: Human pancreatic cancer cell line MIA PaCa2 cells and primary umbilical vein endothelial cells (HUVEC) were purchased from American Type Culture Collection (ATCC). Human pancreatic cancer cell line PANC1 cells were kindly provided by Dr. Zhengrong Cui (College of Pharmacy, The University of Texas at Austin). Mouse mT4-2D pancreatic cancer cell line, which is derived from a Kras^+/LSL-G12DTp53^+/LSL-R172HPdx1-Cre transgenic model of pancreatic cancer, was kindly provided by Dr. Kyaw Aung (Livestrong Cancer Institutes, Dell Medical School, The University of Texas at Austin). MIA PaCa2 cells, PANC1, and mT4-2D cells were maintained in Dulbecco's […] with high glucose (Corning). Cell culture medium was supplemented with 10% fetal bovine serum (Gibco) and 100 U/mL penicillin-streptomycin (Gibco). HUVEC cells were maintained according to protocol provided by ATCC. All cells were maintained at 37° C. in a humidified atmosphere with 5% carbon dioxide.
MTT Assay: Cells were seeded in 96 well plates at a density of 5,000 cells/well. […] After the formazan crystals were completely dissolved, the absorbance at 570 nm was read by a plate reader (Infinite®200 Pro, Tecan). Cell survival rate was calculated as follows: […]
The IC50 (half maximal inhibitory concentration) was calculated using GraphPad Prism 8.

[1] = Tissue distribution of free and total MMAE in MIA PaCa2 tumor-bearing mice; format: in vivo; conditions: for free MMAE in the liver and kidney: no statistical difference to MMAE group
Method: as §1
Pharmacokinetics and tissue distribution: Thirty-six mice bearing MIA PaCa2 tumors were equally divided into 4 groups. […] All treatment arms were dosed with an equivalent amount of MMAE at 0.5 mg/kg. At 10 min, 24 h, 48 h, 72 h, 96 h and 168 h post-administration, blood samples were collected from 3 mice in each group through tail vein. Plasma was separated immediately using BD microtainer. At 24 h, 72 h and 168 h after administration, 3 mice from each group were euthanized to collect liver, kidney, and tumor tissue samples. Plasma and tissue samples were stored at −80° C. until further analysis.
To determine the amount of free MMAE in plasma samples, 1 μL D8-MMAE (250 ng/mL) internal control was added into 10 μL plasma samples and then mixed with 89 μL acetonitrile. The mixture was thoroughly mixed and centrifuged (12,000 rpm, 20 min, 4° C.). The supernatant was collected for LC-MS quantification. To determine free MMAE in mouse tissues, weighed tissues were homogenized with ice-cold PBS containing protease inhibitors (cOmplete™ ULTRA Tablets, Roche) using a tissue homogenizer (Fisher Scientific) to a final concentration of 600 mg/mL. The homogenized suspension was centrifuged at 12,000 rpm for 20 min at 4° C. As an internal control, 1 μL D8-MMAE (250 ng/mL) was added into 20 μL of the supernatant and then mixed with 79 μL acetonitrile. After the mixture was mixed and centrifuged, the supernatant was collected for LC-MS for quantification.
To determine total MMAE (i.e. cleaved MMAE and albumin-conjugated MMAE) in plasma and tissues, a forced degradation was done to completely release conjugated MMAE present in plasma and tissue samples.[25] Briefly, freshly prepared papain (Sigma-Aldrich) was added to plasma and tissue samples at a final concentration of 2 mg/mL, and the mixtures were incubated at 40° C. for 16 hours. The resulting samples were treated as method described above for LC-MS quantification.

[2] = Maximum tolerated dose in healthy athymic NCr nude mice; format: in vivo; conditions: MMAE equivalent dose, every 4 days, 4 doses; body weight change within 20%
Method: Maximum tolerated dose: All animal experiments were approved and performed under the guidelines by the Institutional Animal Care and Use Committee at. The University of Texas at Austin. […] Mice were injected every 4 days for a total of 4 repeated doses. Body weight and general appearance of each mice were monitored for 10 days after the last dose of injection.

[3] = 24 hours after single dose, 0.5 mg/kg MMAE

Substance | conjugated MMAE released upon incubation with Cathepsin B (Cathepsin B) | released MMAE when incubated without Cathepsin B (Cathepsin B) | IC50 (in words), higher than free MMAE (PANC1 cells) | amount of free MMAE in tumor compared to the MMAE group ([1]; 24 hours after single dose) | accumulation of free MMAE in tumor [1, 3] | total MMAE in liver [1, 3] | total MMAE in tumor [1, 3] | free MMAE in the liver and kidney ([1]; 24 hours after single dose) | higher exposure of free MMAE in tumor (AUC0-168 h) compared to ALDC3 group ([1]; tumor AUC0-168 h) | higher exposure of total MMAE in tumor (AUC0-168 h) compared to ALDC3 group ([1]; tumor AUC0-168 h) | more exposure of free MMAE in tumor (AUC0-168 h) compared to MMAE-MAL group ([1]; tumor AUC0-168 h) | more exposure of total MMAE in tumor (AUC0-168 h) compared to MMAE-MAL group ([1]; tumor AUC0-168 h) | maximum tolerated dose [2] | accumulation of free MMAE in tumor compared to MMAE group ([1]; 24 hours after single dose)
ALDC1: albumin-drug conjugate: MMAE via mc-vc-pab linker on Cys34 of recombinant human serum albumin, drug to albumin ratio of 1 | 94.73% | not detectable | μM toxicity | about 2 fold | 2.6 % ID/g | 0.2 % ID/g | 3.8 % ID/g | low levels | ~1.5 fold | about 2 fold | ~10% | ~9.3% | ~0.9 mg/kg | 
ALDC3: albumin-drug conjugate of MMAE drug-linker on TCEP-reduced recombinant serum albumin, drug to albumin ratio of 3 | 90.62% | not detectable | μM toxicity |  |  |  | 1.6 % ID/g | low levels |  |  |  |  | approximately 0.5 mg/kg | did not improve
